Values of other authors in USRE32098E (Research and Education Institute, Inc., priority 1978, dated 1986).

Test system: proteins such as thyroxine-binding globulin (TBG), prealbumin (TBPA) and albumin
Settings: cited from earlier work

SMILES: N[C@@H](Cc1cc(I)c(Oc2cc(I)c(O)c(I)c2)c(I)c1)C(=O)O [T4, thyroxine]
- bound to proteins in normal human serum: about 99.97%
- present as unbound (dialyzable or free) hormone (normal human serum): 0.03%
